# Ab-95 light chain CDR variants: yeast mating affinities

Reference: Engelhart et al. 2022, doi:10.1038/s41597-022-01779-4. File: FLAb, binding data.

Binding partner: SARS-CoV-2 spike HR2 peptide, sequence PDVDLGDISGINAS.

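In library AAYL52, one, two or three CDR residues were substituted; doubles and triples were drawn at random. Affinity was read by AlphaSeq, a pooled yeast mating assay with surface-displayed partners. Pairs that bind mate more often; barcode pairs of the diploids are counted by sequencing. Each replicate has its own calibration line, from reference interactions of the BCL2 family. Each pool was mated in three replicate cultures.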

Parent scFv Ab-95: VH joined to VL by a 15-residue (Gly4Ser)3 linker. Changes lie in the light chain CDRs alone.
VH: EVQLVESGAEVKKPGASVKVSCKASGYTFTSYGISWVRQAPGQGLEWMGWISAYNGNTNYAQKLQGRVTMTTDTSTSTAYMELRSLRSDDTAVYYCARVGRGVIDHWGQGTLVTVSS
VL: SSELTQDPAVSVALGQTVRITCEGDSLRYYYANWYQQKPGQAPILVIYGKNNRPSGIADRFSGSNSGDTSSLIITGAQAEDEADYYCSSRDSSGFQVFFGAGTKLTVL

The parent's light chain CDRs are EGDSLRYYYAN, GKNNRPS, SSRDSSGFQVF; each variant's own CDRs replace them letter for letter.
This list gathers variants with a substitution at P54 (VL, numbered from residue 1).
Numbers give log10(Kd / nM), so 0 is 1 nM and 3 is 1 µM. Smaller is tighter.
Replicates are averaged; those with no signal do not enter the mean.
Where no diploid with the target was found in any replicate, the entry reads "no signal": below detection, most likely a poor binder, though not proof of it.
Empty control strains, which show no peptide, gave a signal in 28% of pairings with library AAYL52; the median was 3.91 and 95% of these signals were weaker than 2.90. No background was subtracted.
Parent in this assay: reference entry 2.31, copy in this library 2.25.

For ETDSLRYYYAN | GKNNRRS | SSRDGSGFQVF, the assay gave 4.77 (1 of 3 replicates).
For EGDSLRYYYAN | GKNAWHS | SSRDSSGFQVF, the assay gave 3.99 (1 of 3 replicates).
For EGDSLRYYYAN | GKNSRMS | SSRHSSGFQVF, the assay gave 4.03 (2 of 3 replicates).
For EGDELRYYYAN | GKNNRFS | SSRDSSGFRVF, the assay gave 3.88 (1 of 3 replicates).
For EGDSLRYYYAN | GKNNRAS | SSRDSSGFIDF, the assay gave 3.89 (3 of 3 replicates).
For EGDSLRYNYAN | GKNWRGS | SSRDSSGFQVF, the assay gave 1.36 (3 of 3 replicates).
For EGDSLRYYYMN | GKNNRVS | SLRDSSGFQVF, the assay gave 4.56 (1 of 3 replicates).
For LGDSLRYYYAN | GKNNRMS | SSRTSSGFQVF, the assay gave 3.56 (3 of 3 replicates).
For EGDSLRYCNAN | GKNNRSS | SSRDSSGFQVF, the assay gave 1.83 (3 of 3 replicates).
For EGDSLRYMYAN | GKNNYFS | SSRDSSGFQVF, the assay gave 4.54 (2 of 3 replicates).
For EGDSARYTYAN | GKNNRLS | SSRDSSGFQVF, the assay gave 3.64 (3 of 3 replicates).
For EGDSLRYYYAN | GKNNRMS | SSRDSGGFLVF, the assay gave 3.15 (3 of 3 replicates).
For EGGSLRYYYAN | GKNNRMS | SSRDCSGFQVF, the assay gave no signal (0 of 3 replicates).
For EGDSLRYYYAN | GCNNRVL | SSRDSSGFQVF, the assay gave 5.45 (1 of 3 replicates).
For EGDSLRYYYAN | GSNNRIS | SSRDSSGFQVF, the assay gave 4.02 (1 of 3 replicates).
For EGDSLRYYYAN | GKNNRSS | SSRDSIGNQVF, the assay gave 2.87 (3 of 3 replicates).
For EGDSLRYYYAN | GKNNENS | SSRDSSGFQCF, the assay gave 4.75 (1 of 3 replicates).
For EGDSLRYYHAN | GKNNRQS | SSGDSSGFQVF, the assay gave 2.64 (3 of 3 replicates).
For EGDSLRYYYAN | GKNNRVS | SSRDSSGMAVF, the assay gave 3.89 (3 of 3 replicates).
For EGDSLRYYYVN | GKWNRWS | SSRDSSGFQVF, the assay gave 4.40 (2 of 3 replicates).
For EGESLRYFYAN | GKNNRDS | SSRDSSGFQVF, the assay gave 3.52 (3 of 3 replicates).
For EQDSLRYYYAN | GKNNRAS | SSRDSSGYQVF, the assay gave 1.89 (3 of 3 replicates).
For EGGSLRYYYAN | GKNNRYS | SSRDSSGFQVF, the assay gave 3.06 (3 of 3 replicates).
For EGDFLRYYYAN | GKNNRMH | SSRDSSGFQVF, the assay gave 3.85 (2 of 3 replicates).
For EGDSLLYYYAN | GKNNRNS | SSRDSSGFQGF, the assay gave 2.73 (3 of 3 replicates).
For EGDSLRYYYAN | GKNNRAS | SHTDSSGFQVF, the assay gave no signal (0 of 3 replicates).
For EGESLRYYYAN | GKNNRYS | SSRDSSGFQVN, the assay gave no signal (0 of 3 replicates).
For SGDSLRYYKAN | GKNNRNS | SSRDSSGFQVF, the assay gave 2.27 (3 of 3 replicates).
For EGDSLRYYYAN | GKNPRKS | SMRDSSGFQVF, the assay gave no signal (0 of 3 replicates).
For EGFSLRYYYAN | GKNNRWS | SGRDSSGFQVF, the assay gave no signal (0 of 3 replicates).
For EGDSLRYSYAN | GMNNRYS | SSRDSSGFQVF, the assay gave 1.53 (3 of 3 replicates).
For EGDSLRYYYAN | GKNNRWS | SSRDSSGFQVF, the assay gave 3.15 (3 of 3 replicates).
For EGDSLRYYYKN | GKNNRVS | SPRDSSGFQVF, the assay gave 3.91 (1 of 3 replicates).
For EGDSLRYYYAN | GKNNRSS | SSRDSSGFQVF, the assay gave 2.19 (3 of 3 replicates).
For EGDSLRYYYAN | GKNNGNS | SSRDSSGKQVF, the assay gave no signal (0 of 3 replicates).
For EGESLRYYYAN | TKNNRTS | SSRDSSGFQVF, the assay gave 4.08 (1 of 3 replicates).
For EGDSLRYYYAN | GKQNRWS | SSRDGSGFQVF, the assay gave 3.88 (1 of 3 replicates).
For EGDSGRYYYAN | GKNNSQS | SSRDSSGFQVF, the assay gave 4.47 (1 of 3 replicates).
For EGSSLRYYYAN | GKNNRRN | SSRDSSGFQVF, the assay gave 3.26 (1 of 3 replicates).
For ELDSLRYSYAN | GKNNRNS | SSRDSSGFQVF, the assay gave 2.70 (3 of 3 replicates).
For EGDSLRYYYAN | GKNNRCS | SSRDSPGFQVF, the assay gave 2.89 (3 of 3 replicates).
For EGDSTRYYYFN | GKNNRGS | SSRDSSGFQVF, the assay gave 3.61 (3 of 3 replicates).
For EGDSLRYYYAK | GKNNRMS | SSRDSEGFQVF, the assay gave no signal (0 of 3 replicates).

The closing 3 entries, repeated:

{"CDR-L1": "EGDSLRYYYAN", "CDR-L2": "GKNNRCS", "CDR-L3": "SSRDSPGFQVF", "mean, log10 nM": "2.89", "replicates with signal": "3/3"}
{"CDR-L1": "EGDSTRYYYFN", "CDR-L2": "GKNNRGS", "CDR-L3": "SSRDSSGFQVF", "mean, log10 nM": "3.61", "replicates with signal": "3/3"}
{"CDR-L1": "EGDSLRYYYAK", "CDR-L2": "GKNNRMS", "CDR-L3": "SSRDSEGFQVF", "mean, log10 nM": "no signal", "replicates with signal": "0/3"}